A selection: hits, their analogues and other compounds. The true share with any hit is near 0.34%.
ERp5 inh: inhibitors of human ERp5; Q15084; ERp5 insulin aggregation, absorbance 650 nm, 90 min; inhibition, % at 9.99 µM; 350,000 tested, 0.05% active; AID 651711;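 active means mean replicate inhibition above about 25%, with every replicate also reaching it, limit read from the data, passing the limit was not always enough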
PDI turbidity: PDI (human) enzyme inhibition; AID 588391; PDI insulin aggregation turbidity, A650, 90 min; 350,000 tested, 0.052% active; P07237; inhibition, % at 10 µM;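 active means mean inhibition across replicates of 30% or more, whatever share of single replicates reach that level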
Cneo AK release: causes C. neoformans cell lysis | adenylate kinase release luminescence, 4 h; normalised: neutral wells 0, clomiphene wells 100 | lysis activity, % at 15 µM | 360,000 tested, 0.2% active;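 active means mean lysis activity across replicates of at least 80%, whatever share of replicates individually reach that level; inactive means mean lysis activity below 80%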
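Signal: Adenylate kinase release luminescence | Assay system: Log-phase Cryptococcus neoformans yeast cells | Input: Cells at 5 × 10^6 per mL | Buffer or medium: Fresh YPD growth medium | Compound: Single dose | Schedule: Static 4 h at 37 °C with compound, 1 h detection | Controls: Clomiphene | Read-out: Luminescence rise reflecting yeast cell lysis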
Yeast UUG start: yeast start codon fidelity modulation | S. cerevisiae UUG-firefly luciferase reporter, luminescence/redox ratio | activity score, % at 18.7 µM | hit rate 0.13% among 350,000 | AID 602363;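 active means replicate mean at a twofold rise or more, about +100% in these data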;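 further: firefly luciferase made from a UUG start codon reports start codon fidelity; reporter light over untreated wells divided by growth signal over untreated wells; some hits fall short of that in this replicate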
Numbers stand for hits; – = inactive; · = no result.

SMILES	ERp5 inh	PDI turbidity	Cneo AK release	Yeast UUG start
CC(C)(C)OC(=O)N[C@@H](Cc1c[nH]c2ccccc12)c1nnc(SCC(N)=O)o1	·	–	–	–
O=C(C[C@@H]1C=C[C@H](NS(=O)(=O)c2ccccc2F)[C@H](CO)O1)NCCCN1CCOCC1	–	·	–	·
C[C@@H](NC(=O)C[C@H]1C=C[C@H](NC(=O)Nc2ccc3c(c2)OCO3)[C@H](CO)O1)c1ccccc1	–	·	–	·
O=C(NCc1ccc(F)cc1)C1C2C=CC3(CN(Cc4cccnc4)C(=O)C13)O2 (stereo unspecified)	·	–	116	–
O=C(NCc1ccc(Cl)cc1)C1C2C=CC3(CN(Cc4cccnc4)C(=O)C13)O2 (stereo unspecified)	–	–	–	–
Cc1ccc(S(=O)(=O)NCC[C@@H]2CC[C@@H](NC(=O)Nc3ccccc3F)[C@H](CO)O2)cc1	–	·	–	–
O=c1nc(-c2ccccc2)c2ccccc2[nH]1	·	–	116	–
O=C(C[C@@H]1CC[C@@H]2[C@H](COC[C@@H](O)CN2C(=O)Nc2ccc(Cl)cc2)O1)N1CCCCC1	–	·	–	–
COc1ccc(S(=O)(=O)Nc2ccc3c(c2)CC(=O)N([C@H](C)CO)C[C@@H](C)[C@H](CN(C)C(=O)Nc2ccccc2)O3)cc1	–	·	–	–
O=C(C[C@@H]1C[C@H]2c3cc(NC(=O)CC4CC4)ccc3O[C@H]2[C@H](CO)O1)NCCN1CCCCC1	–	·	–	–
Cc1noc(C)c1NC(=O)N(C)C[C@H]1Oc2c(NS(=O)(=O)c3ccc(Cl)cc3)cccc2C(=O)N([C@@H](C)CO)C[C@@H]1C	25	·	–	–
Cc1noc(C)c1NC(=O)Nc1cccc2c1O[C@H](CN(C)S(=O)(=O)c1cn(C)cn1)[C@H](C)CN([C@H](C)CO)C2=O	–	·	96	–
Cc1noc(C)c1NC(=O)Nc1cccc2c1O[C@H](CN(C)S(=O)(=O)c1ccc(Cl)cc1)[C@@H](C)CN([C@H](C)CO)C2=O	26	·	–	–
Cc1ccc(S(=O)(=O)N(C)C[C@H]2Oc3c(NC(=O)Nc4c(C)noc4C)cccc3C(=O)N([C@@H](C)CO)C[C@@H]2C)cc1	–	·	–	–
C[C@H]1CN([C@@H](C)CO)C(=O)c2cccc(NC(=O)c3ccc(-c4nccs4)cc3)c2O[C@@H]1CN(C)S(C)(=O)=O	–	·	–	–
CCCNC(=O)C[C@@H]1C[C@H]2c3cc(NS(C)(=O)=O)ccc3O[C@H]2[C@@H](CO)O1	56	·	–	–
CCCNC(=O)C[C@H]1C[C@H]2c3cc(NS(C)(=O)=O)ccc3O[C@H]2[C@@H](CO)O1	27	·	–	–
CCCNC(=O)C[C@@H]1C[C@@H]2c3cc(NS(C)(=O)=O)ccc3O[C@@H]2[C@@H](CO)O1	·	·	–	–
C[C@H](CO)N1C[C@H](C)[C@@H](CN(C)S(=O)(=O)c2ccc(F)cc2)Oc2ccc(NS(C)(=O)=O)cc2C1=O	–	·	–	–
CO[C@@H]1CN(C)C(=O)c2ccc(NC(=O)NC(C)C)cc2OC[C@H](C)NC[C@@H]1C	–	·	82	–
CO[C@H]1CN(C)C(=O)c2ccc(NC(=O)NC(C)C)cc2OC[C@@H](C)NC[C@H]1C	–	·	82	–
CCS(CC)=NS(=O)(=O)c1ccc(NC(C)=O)cc1	·	–	123	–
C[C@@H]1CN([C@@H](C)CO)C(=O)c2cc(-c3ccc(C#N)cc3)cnc2O[C@@H]1CN(C)C(=O)Nc1ccc(F)cc1	–	·	92	–
CC(C)NC(=O)N(C)C[C@@H]1Oc2ncc(-c3cc4ccccc4o3)cc2C(=O)N([C@H](C)CO)C[C@@H]1C	28	·	–	–
C[C@H]1CN([C@@H](C)CO)C(=O)c2cc(-c3ccccc3)cnc2O[C@@H]1CN(C)C(=O)Nc1ccc2c(c1)OCO2	–	·	–	–
SMILES	ERp5 inh	PDI turbidity	Cneo AK release	Yeast UUG start
C[C@H](CO)N1C[C@H](C)[C@H](CN(C)C(=O)Nc2ccc3c(c2)OCO3)Oc2ncc(-c3ccc(F)cc3)cc2C1=O	–	·	91	–
C[C@H]1CN([C@@H](C)CO)C(=O)c2cc(-c3ccc(C#N)cc3)cnc2O[C@H]1CN(C)C(=O)Nc1ccc(F)cc1	–	·	–	–
CCNC(=O)C[C@@H]1CC[C@@H]2[C@H](COc3ccc(NC(=O)C4CCOCC4)cc3C(=O)N2C)O1	–	·	–	–
Cc1ccccc1NC(=O)C1=CC=CN2CCS(=O)(=O)N=C12	–	–	–	–
CCCCN(C(=O)C1=CC=CN2CCS(=O)(=O)N=C12)c1ccccc1	–	37	–	–
CCOc1ccc(C(=O)N(CC)CC(=O)Nc2ccc3c(c2)OCCO3)cc1OCC	–	–	–	–
CCN(CC(=O)Nc1ccc2c(c1)OCCO2)C(=O)CC1CCCC1	·	33	–	–
COCCNC(=O)C[C@H]1C=C[C@@H](NS(=O)(=O)c2ccc(C)cc2)[C@H](CO)O1	–	·	93	–
Cc1ccc(S(=O)(=O)N[C@H]2C=C[C@H](CC(=O)NCCCN(C)C)O[C@@H]2CO)cc1	–	·	–	–
COCCNC(=O)C[C@H]1C=C[C@H](NS(=O)(=O)c2ccc(C)cc2)[C@@H](CO)O1	–	·	105	–
CCNC(=O)C[C@H]1C=C[C@@H](NS(=O)(=O)c2ccc(C)cc2)[C@H](CO)O1	–	·	–	–
C[C@H](CO)N1C[C@H](C)[C@@H](CN(C)CC2CCOCC2)Oc2ncc(C#C[C@@H](C)O)cc2C1=O	–	·	–	·
COc1ccccc1-c1ccc([C@H]2[C@H](C#N)N[C@@H]2CO)cc1	–	·	–	·
CCn1c(SCC(=O)Nc2cccc(NC(C)=O)c2)nnc1-c1ccco1	–	–	–	–
CCn1c(SCC(=O)Nc2ccc3c(c2)c2ccccc2n3CC)nnc1-c1ccco1	·	56	–	–
O=C1CCc2cc(S(=O)(=O)NCc3ccccc3Cl)cc3c2N1CC3	29	–	–	–
CCc1c(C)n([O-])c2c([n+]1=O)CCC2	·	46	–	–
COc1ccc(NC(=O)Nc2ccc3c(c2)C(=O)N([C@@H](C)CO)C[C@@H](C)[C@H](CN(C)C(=O)Cc2ccccc2)OCCCC[C@H](C)O3)cc1	–	·	115	–
COc1ccc(NC(=O)Nc2ccc3c(c2)C(=O)N([C@@H](C)CO)C[C@H](C)[C@H](CN(C)C(=O)Cc2ccccc2)OCCCC[C@@H](C)O3)cc1	–	·	–	–
COc1ccc(NC(=O)Nc2ccc3c(c2)C(=O)N([C@H](C)CO)C[C@H](C)[C@@H](CN(C)C(=O)C2CCCCC2)OCCCC[C@H](C)O3)cc1	30	·	–	–
COc1ccc(NC(=O)Nc2ccc3c(c2)C(=O)N([C@@H](C)CO)C[C@H](C)[C@H](CN(C)C(=O)C2CCCCC2)OCCCC[C@@H](C)O3)cc1	–	·	–	–
COc1ccc(NC(=O)Nc2ccc3c(c2)C(=O)N([C@H](C)CO)C[C@H](C)[C@H](CN(C)C(=O)Cc2ccccc2)OCCCC[C@H](C)O3)cc1	–	·	101	–
CC(C)NC(=O)Nc1ccc2c(c1)C(=O)N([C@@H](C)CO)C[C@@H](C)[C@H](CN(C)C(=O)Cc1ccccc1)OCCCC[C@@H](C)O2	–	·	95	·
